{
  "source": "patent US11219598B2",
  "about": "“Ophthalmic drug sustained release device” (PUBLIC UNIVERSITY CORPORATION NAGOYA CITY UNIVERSITY, priority 2016, dated 2022)",
  "assay": "Drug release test of cetuximab-containing sustained release device implanted extraocularly in rabbit",
  "format": "in vivo",
  "description": "The hollow device (FIGS. 6(A) and (B)) made of VisiJet (registered trademark) Crystal (ultraviolet curable acrylic resin) was produced by using a three-dimensional (3D) printer (Projet 3510HD plus). After filling of the hollow device with a cetuximab solution as an antibody drug, it was subjected to freeze drying treatment. The properties of the sustained release device 10, which was produced in this manner and filled with cetuximab as a porous body, were investigated. Comparison was made between the case where air was used and the case where a sufficient amount of SF6 was substituted for air (SF6 enclosed), just before transplantation, as the gas to be filled in the device.\nAfter a rabbit was anesthetized by intramuscular injection of Ketalar and Selactar, the pupil of the right eye was dilated with a […] hydrochloride ophthalmic solution (Mydrin-P (registered trademark), Santen Pharmaceutical Co., Ltd.). Next, after surface anesthesia by ocular instillation of oxybuprocaine hydrochloride (Benoxil ophthalmic solution, Santen Pharmaceutical Co., Ltd.), the conjunctiva was incised to expose the sclera, and a sclerocornea tunnel was prepared. […]\nAfter surgery, anterior chamber water was sucked and collected periodically, and cetuximab in the anterior chamber water sample was quantified with an ELISA kit. […]",
  "data": [
    {"substance": "cetuximab", "values": [
      {"measurement": "duration of sustained release (cetuximab in anterior chamber water, ELISA)", "setting": "freeze-dried cetuximab in hollow device 10, extraocular implant, tube tip in anterior chamber, rabbit", "value": "≥ 6", "unit": "months"},
      {"measurement": "suitability for long-term sustained release, SF6 enclosed versus air enclosed", "setting": "freeze-dried cetuximab in hollow device 10, rabbit, gas in device SF6 compared with air", "value": "more suitable for long-term sustained release"}
    ]}
  ]
}
